Reference: PubChem BioAssay AID652025 (National Center for Advancing Translational Sciences (NCATS), 2013)
The list shows a part of the results, in another mix than the full data. Calls of active or inactive are those of the source. Cut-off read from the data, not from the text of the source: active = activation above about 50%; inconclusive = mostly about 30% to 49%; inactive = weaker than that.

assay: qHTS of IL-2 Activators; conditions: IL-2 activation reporter assay, cell-based qHTS; active compounds read high; in transgenic mouse T cells; stimulated with anti-CD3/CD4/CD28 beads; note: 0% is about no effect
Description: The adaptive immune response against any infectious agent begins with the activation of an antigen specific T cell. This relatively rare and inert ("naive") T cell undergoes a massive proliferative expansion and differentiation process to generate sufficient number of potent pathogen-specific effector T cells. The effector T cells fight the infection by making cytokines and helping other cells to become fully armed as well. If any naive T cell has antigen receptors (TCRs) that can be activated by self peptides, then a variety of regulatory mechanisms kick in to prevent this cell from performing to its full potential. These processes collectively constitute the phenomenon of immunological tolerance and their failure leads to autoimmunity. One arm of tolerance involves generation of biochemical negative feedback downstream of the TCR (tuning). This is especially relevant to self antigens present in the body over long periods of time (chronic), which form the bulk of our proteome. The negative feedback serves to tune the TCR signaling, such that the ambient antigenic stimulation is nullified intracellularly. Unfortunately, this critical machinery serves as a target for chronic viral, bacterial and parasitic infections (as well as tumors), which can evade a robust immune response, simply by allowing T cells to tune down their signaling to pathogen or malignancy derived antigens. As such, disrupting the tuning in such cases would allow the tolerant T cell to function again and deliver a robust effector response.
If a therapeutic can restore responsiveness to the tuned down T cell, even for a short time, they could combat the pathogen without any additional immunization. To that end, we have developed a sensitive HTS T cell based assay based on IL-2. This assay will be screened against the Molecular Libraries Small Molecule Repository (MLSMR) to find small molecules that could elicit this response.
NIH Chemical Genomics Center [NCGC]
NIH Molecular Libraries Probe Centers Network [MLPCN]
Assay Submitter (PI): Ron Schwartz, NIAID
4 microL (750 cells/well) of unstimulated transgenic mouse T cells (columns 1-3,5-48) are dispensed into Aurora LoBase, black clear-bottom 1536-well assay plates; column 4 receives an identical concentration of transgenic memory T cells as a non-tolerant control. Compounds are then transferred via Kalypsys pin tool equipped with 1536-pin array (10 nL slotted pins, V&P Scientific, San Diego, CA). Following addition of compound and a 60 minute incubation, 1 microL of bead stimulation solution ((0.04 micron Fluospheres (Life technologies, CA) coated with 10ug/ml each anti-CD3 and anti-CD4 (clones 2C11 and GK1.5, BD Biosciences, CA) and mixed with 1ug/ml anti-CD28 (clone PV-1, BD biosciences, CA)). columns 2-48) is added to stimulate the IL-2 response pathway; media is instead added to column 1 as an unstimulated control, while PMA/ionomycin (Sigma Aldrich, MO) is added to column 3 as a control for IL-2 tolerance bypass. The plates are then incubated at 37 degrees C for 18 hours. EGFP and DsRed signal are then detected using an Acumen eX3 Explorer fluorescent plate cytometer. All cells are dispensed in cell media containing EHAA (Quality Biologicals, MD), RPMI (Quality Biologicals, MD), Glutamine (Life Technologies, CA), Penicillin/Streptomycin (Quality Biologicals, MD), 2-ME (Sigma Aldrich, MO) and 10% FBS (Gemini Bioproducts, CA) .

Row | Structure (SMILES) | activation
1 | Cc1ccc(NCCc2c([N+](=O)[O-])cc([N+](=O)[O-])cc2[N+](=O)[O-])cc1 | inactive: 0.118%
2 | Nc1cccc2c([As](=O)(O)O)cccc12 | inactive: 3.45%
3 | CCCOP(=S)(Nc1nc(N)cc(=O)[nH]1)OCCC | inactive: 0.0104%
4 | CCOP(=O)(Nc1cccc2ccccc12)OCC | inactive: -3.41%
5 | COc1cc(C2NCCC3(OCCO3)C2(C)C)cc(OC)c1OC (centres undefined) | inactive: -4.95%
6 | O=C(OC1CN2CCC1CC2)c1ccc(Cl)cc1 (centres undefined) | inactive: -0.799%
7 | CS(=O)(=O)c1ccc(Cl)c(NC(=O)COC(=O)C(O)(c2ccccc2)c2ccccc2)c1 | inactive: 0.177%
8 | COc1cc(C(=O)NCC2(N3CCOCC3)CCCCC2)cc(Cl)c1OC(C)C | inactive: -0.178%
9 | O=[As](O)(O)c1cccnc1 | inactive: -0.417%
10 | O=[As](O)(c1cccc(O)c1)c1cccc(O)c1 | inactive: -0.0395%
11 | Cc1cccc(OCC(=O)OC2CN3CCC2CC3)c1 (centres undefined) | inactive: 1.59%
12 | NC(=O)Nc1ccc([As](=O)(O)O)cc1 | inactive: 0.42%
13 | CN(C(=O)Cc1ccccc1)[C@@H]1CC[C@]2(CCCO2)C[C@H]1N1CCCC1 | inactive: -0.329%
14 | CCOP1(=S)c2c(C)nn(CCC#N)c2N=C(c2ccc(F)cc2)N1C (centres undefined) | inactive: -1.74%
15 | N#CCCN(C(=O)COC(=O)C(O)(c1ccccc1)c1ccccc1)c1ccc(F)cc1 | inactive: -4.84%
16 | CN(C(=O)Cc1ccc(Cl)c(Cl)c1)[C@H]1CC[C@@]2(CCCO2)C[C@@H]1N1CCCC1 | inactive: 0.0586%
17 | CN(C)C(=O)c1cc([N+](=O)[O-])cc2c1-c1c(cc([N+](=O)[O-])cc1[N+](=O)[O-])C2=O | inactive: -0.483%
18 | O=[N+]([O-])c1ccc2c(c1)nnn2O | inactive: -2.17%
19 | O=P(Nc1nccs1)(c1ccccc1)c1nc2ccccc2s1 (centres undefined) | inactive: -0.666%
20 | O=P(Nc1nccs1)(Oc1ccccc1)Oc1ccccc1 | inactive: 0.635%
21 | CCOP1(=S)c2c(C)nn(CCC#N)c2N=C(c2ccccc2F)N1C (centres undefined) | inactive: -2.39%
22 | CS(=O)(=O)c1cc([N+](=O)[O-])c2no[n+]([O-])c2c1 | inactive: -0.0549%
23 | O=C(O)COc1ccc([As](=O)(O)O)cc1[N+](=O)[O-] | inactive: -0.34%
24 | Nc1ccccc1[As](=O)(O)c1ccccc1 | inactive: -1.6%
25 | Cc1ccc(S(=O)(=O)N(CCCN)CCCc2c(C)nc(N)[nH]c2=O)cc1 | inactive: 1.55%

Row | Structure (SMILES) | activation
26 | O=P1(Nc2ncccn2)COc2ccccc2OC1 | inactive: 0.314%
27 | Nc1cccc([As](=O)(O)c2ccccc2)c1 | inactive: 1.06%
28 | NS(=O)(=O)c1cccc(NC(=O)COC(=O)C(O)(c2ccccc2)c2ccccc2)c1 | inactive: -0.185%
29 | O=P1(Nc2ccc(Br)cn2)COc2ccccc2OC1 | inactive: 2.04%
30 | Cc1ccc(OCC(=O)OC2CN3CCC2CC3)cc1 (centres undefined) | inactive: -1.67%
31 | O=[As](O)(c1cccs1)c1cccs1 | inactive: 0.502%
32 | Cc1ccc(C(=O)OC2CN3CCC2CC3)cc1 (centres undefined) | inactive: -3.14%
33 | CC1CCC(C(C)C)C(OP(=O)(Nc2ccccn2)c2ccccc2)C1 (centres undefined) | inactive: -0.608%
34 | Cc1nn(-c2ccccc2)c2c1P(=O)(N1CCOCC1)N(C)C(c1ccccc1)=N2 (centres undefined) | inactive: 0.789%
35 | CN(C)C1(CNC(=O)c2ccc(S(C)(=O)=O)cc2)CCCCC1 | inactive: 0.686%
36 | CCCC1OP(=O)(Nc2ccccc2)OCC1CC (centres undefined) | inactive: 0.485%
37 | O=C(/C=C/c1ccccc1)OC1CN2CCC1CC2 (centres undefined) | inactive: -5.6%
38 | COc1ccccc1CNC(=O)COC(=O)C(O)(c1ccccc1)c1ccccc1 | inactive: 1.92%
39 | CN(C(=O)Cc1ccc(Cl)c(Cl)c1)[C@@H]1CCCC[C@H]1N1CCCC1 | inactive: 0.969%
40 | CC(C)/C=N\N=C(\N)N[N+](=O)[O-] | inactive: -1.14%
41 | CC1(CBr)Cn2c(nc3ccccc3c2=O)S1 (centres undefined) | inactive: -0.0115%
42 | CCOP(=O)(NC(=NC(C)c1ccccc1)NC(C)c1ccccc1)OCC (centres undefined) | inactive: -1.22%
43 | CCC1=CC2Cc3nc4ccc(Cl)cc4c(N)c3C(C1)C2 (centres undefined) | inactive: -3.45%
44 | O=P1(Nc2ccccn2)COc2ccccc2OC1 | inactive: -1.91%
45 | CN(CCCl)Cc1cc(Cl)c(NC2=NCCN2)c(Cl)c1 | inactive: -0.247%
46 | CCOP(=O)(Nc1ccc(C)cn1)OCC | inactive: -2.19%
47 | CC(C)(C)C(=O)NC(Sc1ncccn1)C(Cl)(Cl)Cl (centres undefined) | inactive: -0.151%
48 | Clc1n[nH]nc1-c1nn[nH][15n]1 | inactive: -0.169%
49 | O=P1(N(CCCl)CCCl)NCCC(C(F)(F)F)O1 (centres undefined) | inactive: -0.23%
